Yeast mating assay 2: variants of the scFv Ab-91

The target is the same throughout: PDVDLGDISGINAS, from the HR2 region of SARS-CoV-2 spike.

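The starting antibody came from a phage panning campaign against this peptide. The library (AAYL51) carries one to three amino acid substitutions per variant, with no insertions or deletions. Affinity was read by AlphaSeq, a pooled yeast mating assay with surface-displayed partners. After mating in shaken culture at 30 °C for 16 h, diploids were selected and their barcode pairs sequenced. A regression on co-assayed BCL2-family reference pairs converts the normalised counts of each replicate to an apparent Kd. Mating was done three times.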

Parent scFv Ab-91: VL joined to VH by a 15-residue (Gly4Ser)3 linker. Changes lie in the heavy chain CDRs alone.
VL: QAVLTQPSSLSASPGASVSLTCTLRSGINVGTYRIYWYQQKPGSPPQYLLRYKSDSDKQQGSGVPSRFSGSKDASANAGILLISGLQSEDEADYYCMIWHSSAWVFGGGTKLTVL
VH: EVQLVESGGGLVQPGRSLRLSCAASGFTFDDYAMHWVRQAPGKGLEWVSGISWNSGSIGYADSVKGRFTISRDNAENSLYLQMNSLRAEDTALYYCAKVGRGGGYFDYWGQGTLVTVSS

Variants are written as CDR1, CDR2 and CDR3 of the heavy chain (limits as in the source). Parent: GFTFDDYAMH, GISWNSGSIGYADSVK, VGRGGGYFDY. Numbers give log10(Kd / nM), so 0 is 1 nM and 3 is 1 µM. Smaller is tighter. Averages over replicates are reported, and they cover detected replicates only. "no signal" marks a missing value. The strain was present, yet no cells mated with the target were sequenced in any replicate, which points to weak or no binding.

| # | CDR-H1 | CDR-H2 | CDR-H3 | mean log10 Kd (nM) | replicates with signal |
|---|---|---|---|---|---|
| 1 | GFTFDDYAMH | GISWNNGSIGYADSVK | VERGGGYFDY | 5.47 | 2/3 |
| 2 | GFTFDHYAMH | GWSWNSGSIGYADSVK | VGRGGTYFDY | no signal | 0/3 |
| 3 | GFTFDDYAMH | GILWNSGSIGYADSVK | DGRGGGVFDY | no signal | 0/3 |
| 4 | GFTFDDYAMH | GISWNSGSIGYAFSVK | VGNGGWYFDY | no signal | 0/3 |
| 5 | GFTQDDYAMH | GISWNFGSIGAADSVK | VGRGGGYFDY | no signal | 0/3 |
| 6 | GFSFDDYAMH | GISWNSGRIGYDDSVK | VGRGGGYFDY | 5.02 | 2/3 |
| 7 | GFTFNDYAMH | GISWNSGSIGYADSVK | VERGGGYFDY | no signal | 0/3 |
| 8 | GFTFDDYAMH | GIKWNSGSIGYADSVK | TGRGGCYFDY | 4.54 | 1/3 |
| 9 | GFTFDDYAMH | GIQWNSGSIGYADSVK | VGRRGKYFDY | no signal | 0/3 |
| 10 | GFTFDLYAMH | GISWNSGIIGYADSVK | VGRGGGYFIY | 3.50 | 1/3 |
| 11 | GFTFDDYAMH | GISWNSGSIGYADSVK | VGRMGGYFSY | 1.56 | 3/3 |
| 12 | GFTFDDYIIH | GISWNSGSIGYADSVK | VGYGGGYFDY | 4.56 | 1/3 |
| 13 | GLTFDDYLYH | GISWNSGSIGYADSVK | VGRGGGYFDY | no signal | 0/3 |
| 14 | GVTFDDYAMH | GISWNNGSIGYADSPK | VGRGGGYFDY | 4.86 | 2/3 |
| 15 | GGTFDDYAMH | GISWNSGSITYADSVK | VCRGGGYFDY | no signal | 0/3 |
| 16 | VFMFDDYAMH | GISWNSGSIGYADSVK | VGRGGGYFSY | 4.65 | 1/3 |
| 17 | GFTFWDYAMH | VISWNSGSIGWADSVK | VGRGGGYFDY | no signal | 0/3 |
| 18 | GNTFDDYAMH | GESWNSGSIGYADSVK | VGRGGGYFDM | 5.38 | 1/3 |
| 19 | GCTFDDYAGH | GISWNSGSIGYADSVK | VYRGGGYFDY | no signal | 0/3 |
| 20 | GFYFDDYAMH | GISWNRGSIGYADSHK | VGRGGGYFDY | no signal | 0/3 |
| 21 | GSTFDDYAMH | GISWNSTSIGYADSVK | VGRGGGWFDY | 5.06 | 2/3 |
| 22 | GFTFDDYQMI | GISWNSGSIGYADSVK | VGRGWGYFDY | 4.62 | 2/3 |
| 23 | GFTIDDYAMH | GISWNSGSFGYADSVK | VGRGGGYFDY | 3.05 | 3/3 |
| 24 | GFTQDDYAMH | GISWNSGSIGYADSVK | VGRGGGYPDY | 5.66 | 2/3 |
| 25 | GFTFDDNAMH | GISWNSGSIGYADSVK | VGRGGGYDDH | 3.31 | 1/3 |
| 26 | GFKFDDYAMH | GKSWISGSIGYADSVK | VGRGGGYFDY | no signal | 0/3 |
| 27 | GFTFDDQAMH | GITWNSGSIGYADSVK | VGQGGGYFDY | 4.96 | 3/3 |
| 28 | GFTFADYAMH | GISWNSGSSGYADSVK | VGRGGGYFDN | no signal | 0/3 |
| 29 | GFTFDDYAMH | GISSNSGSIGYADSVK | VGRMGHYFDY | no signal | 0/3 |
| 30 | GFTFDDYAMH | GIHWNSMSIGYADSVK | VGRGGGYFDY | no signal | 0/3 |
| 31 | GFCFQDYAMH | GISWNSQSIGYADSVK | VGRGGGYFDY | no signal | 0/3 |
| 32 | GFTFDDYAMI | GWSWNSGSIGYADSVK | VGRGGGYFDY | no signal | 0/3 |
| 33 | TFTFDDYAMH | GIWWNSGSIGYADSVK | VGRGGGYEDY | 4.49 | 2/3 |
| 34 | GFTFDLYAMH | GISWNSGSIGYADSVK | VGKGGGYFDG | no signal | 0/3 |
| 35 | GFTFDDYAMH | GRMWNSGSIGYADSVK | VGRGGGYVDY | 5.36 | 2/3 |
| 36 | GFTFDDYAMH | GISWNSFSIGYADSVK | VGREGDYFDY | 2.02 | 1/3 |
| 37 | GFTFDDYAMH | GISWNSYSIGYADSVK | VFRGGGYFDY | 5.38 | 1/3 |
| 38 | GFTFDDYAMH | GISWNSHSIGYAQSVK | VGRGGGYFDY | 3.53 | 3/3 |
| 39 | GFTFDDYAMH | GISWNSGSIGYADSVK | VQRIGFYFDY | no signal | 0/3 |
| 40 | GFTFDDYAMH | AIRWNSGSIGYADSVK | VGRGGNYFDY | no signal | 0/3 |
| 41 | GFTKDDYAMH | GISWNSGSIGYADMVQ | VGRGGGYFDY | 3.29 | 1/3 |
| 42 | GFTFDDYNMH | NISWNSGSIGYADSSK | VGRGGGYFDY | no signal | 0/3 |
| 43 | GFTFDDYHMH | GISWNSMSINYADSVK | VGRGGGYFDY | no signal | 0/3 |
| 44 | GFTFDDYAMH | GISWNSGSIGYADSVK | VNDGGGYFDY | 0.97 | 3/3 |
| 45 | GFTFDDYAMY | GISWNHGSIRYADSVK | VGRGGGYFDY | no signal | 0/3 |
| 46 | YFTFDDYPMH | GISWNSRSIGYADSVK | VGRGGGYFDY | no signal | 0/3 |
| 47 | GFTFDDYAMH | GISWCSGSIGCADSVK | VGRGGGYFDN | no signal | 0/3 |
| 48 | GFTFWDYAMH | GISWNSGSIGYIDSVK | VGRGHGYFDY | 5.27 | 1/3 |
| 49 | GFTFDDYAHH | GISWNSTSIGPADSVK | VGRGGGYFDY | 5.30 | 1/3 |
| 50 | GFTFDDYKMK | GIIWNSGSIGYADSVK | VGRGGGYFDY | no signal | 0/3 |
| 51 | GFTFDDYMMW | GISWNSGSIGRADSVK | VGRGGGYFDY | no signal | 0/3 |
| 52 | GFTFDDYAWH | GISWNSGSIGYADSVR | PGRGGGYFDY | 4.56 | 1/3 |
| 53 | GFTFDDYAWH | GISRNSGSIGYADSVK | VGRGGGYQDY | 4.37 | 1/3 |
| 54 | GFTFDIYAMH | GISWNLGSIGYADSVK | VGRGGGYDDY | no signal | 0/3 |
| 55 | RFTFDDYAMH | GISWNSGSIGYADSVK | LGRGGGYFDE | 4.55 | 2/3 |
| 56 | GVTFDIYAMH | GIKWNSGSIGYADSVK | VGRGGGYFDY | no signal | 0/3 |
| 57 | GFRFDDYAMH | FISWNSGSIGYADSVK | VGRGGGIFDY | 4.57 | 2/3 |
| 58 | GFTFDDYAMH | GISWLSGSIGYADSSK | VGRGGGYFDY | no signal | 0/3 |
| 59 | GFTFDDYQMH | GISWESGSIHYADSVK | VGRGGGYFDY | 4.93 | 3/3 |
| 60 | GFTFDDYAMH | GISWNSISIGYADTVK | VGRGGGYFRY | 5.08 | 3/3 |

A selection of 6 entries from above:

| CDR-H1 | CDR-H2 | CDR-H3 | mean log10 Kd (nM) | replicates with signal |
|---|---|---|---|---|
| GFTFWDYAMH | GISWNSGSIGYIDSVK | VGRGHGYFDY | 5.27 | 1/3 |
| GFCFQDYAMH | GISWNSQSIGYADSVK | VGRGGGYFDY | no signal | 0/3 |
| GFTFDDYHMH | GISWNSMSINYADSVK | VGRGGGYFDY | no signal | 0/3 |
| GFTFDDYAMH | GISWNSHSIGYAQSVK | VGRGGGYFDY | 3.53 | 3/3 |
| GLTFDDYLYH | GISWNSGSIGYADSVK | VGRGGGYFDY | no signal | 0/3 |
| GFTFDDYIIH | GISWNSGSIGYADSVK | VGYGGGYFDY | 4.56 | 1/3 |

As a blank, each scFv also met three strains without target: over library AAYL51, 21% of these pairings were detected, typically at 4.54 and seldom below 3.26. In this assay the parent's reference entry averaged 1.86; its copy inside this library read 0.88.

From the AlphaSeq antibody data of Engelhart et al. 2022 (doi:10.1038/s41597-022-01779-4), copy in the FLAb collection.